Experimental data published in patent publication US10610582B2, “Compound and method for vaccination and immunisation” (PCI Biotech AS, priority 2013, dated 2020).

Tested on: antigen specific CD8 T-cells
Conditions: after 1st and 2nd immunisation; 200 μg OVA + labelled adjuvant (50 μg imiquimod or 10 μg MPLA-SM) combined with PCI (100 μg TPCS2a + light)

| Compound | % antigen-specific, CD44+ cells of the total CD8+ cells |
| --- | --- |
| CC(C)Cn1cnc2c(N)nc3ccccc3c21 [imiquimod, 3-(2-methylpropyl)-3,5,8-triazatricyclo[7.4.9.0^2,6]trideca-1(9),2(6),4,7,10,12-hexaen-7-amine] | substantially better immunisation effect than what was achieved using the adjuvants alone |
| Monophosphoryl Lipid A [MPLA] | substantially better immunisation effect than what was achieved using the adjuvants alone |
